Results as given in patent US12582616B2, “Molecular targets for modulation of dissociative and associative states” (The Board of Trustees of the Leland Stanford Junior …, priority 2020, dated 2026).

Tests used:
layer 5 RSP neurons = assay: Ketamine-TRAP (TRAP2) brain-wide activity-mapping; assay type: in vivo, mouse; conditions: 50 mg/kg ketamine injections
Description: Dissolved 4-OHT (20 mg/mL in ethanol) was mixed with corn oil at a concentration of 10 mg/mL, and ethanol evaporated by vacuum centrifugation (60 minutes). Mice were each placed alone in a novel cage for 30 minutes, to remain for the experiment. Two mice were injected with 50 mg/kg ketamine intraperitoneally, and two mice were injected with an equivalent volume of saline. After 1 hr, all mice were injected with 50 mg/kg tamoxifen, as well as an additional dose of 50 mg/kg ketamine/saline. After 1 hr, a final dose of ketamine/saline was administered. This protocol was designed to ensure that the ketamine-induced oscillation (and associated cFos expression) was occurring throughout the majority of the ˜4 hr post-tamoxifen-injection time window during which TRAP2 labels cells. After 10 days (to allow time for expression of tdTomato), mice were perfused with ice cold PBS and 4% PFA. Coronal sections (50 μm) were taken using a vibratome and imaged on an epifluorescence microscope.

[1] = test system: brain regions correlated with RSP; assay: Simultaneous recording from four Neuropixels probes with i.p. drug delivery; conditions: subanesthetic ketamine

SMILES: CNC1(c2ccccc2Cl)CCCCC1=O (centres unmarked) [ketamine]
- layer recruited in TRAP2 activity-mapping (layer 5 RSP neurons): layer 5 was specifically recruited
- phase of anteromedial thalamic neurons relative to RSP [1]: oscillate out-of-phase with RSP
